## AlphaSeq binding of Ab-14 light chain variants to a spike HR2 peptide

Reference: Li et al. 2023, doi:10.1038/s41467-023-39022-2. File: FLAb, binding data.

Target peptide (SARS-CoV-2 spike, HR2 region): PDVDLGDISGINAS

Ab-14 is the parent antibody, in scFv form: VH, then three GGGGS repeats, then VL. The heavy chain is unchanged in all variants.
VH: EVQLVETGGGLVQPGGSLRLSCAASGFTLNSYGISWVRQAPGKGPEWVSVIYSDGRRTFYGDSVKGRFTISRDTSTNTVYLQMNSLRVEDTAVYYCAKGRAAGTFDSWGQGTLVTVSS
VL: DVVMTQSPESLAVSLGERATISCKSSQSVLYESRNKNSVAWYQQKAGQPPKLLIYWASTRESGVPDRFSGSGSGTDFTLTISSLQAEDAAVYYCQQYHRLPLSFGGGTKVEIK

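Designed CDR sequences, proposed from the first random library and measured here. Several design methods are mixed in this list. In AlphaSeq, yeast of one mating type display the scFv and yeast of the other type display the target. Mating (16 h, 30 °C) was followed by selection of diploids and sequencing of their barcodes. Scores were corrected for input abundance and mapped to Kd with protein pairs of known affinity run in the same pool. Mating was done six times.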

The parent's light chain CDRs are KSSQSVLYESRNKNSVA, WASTRES, QQYHRLPLS; each variant's own CDRs replace them letter for letter. Values are log10 of the apparent Kd in nM; lower means stronger binding. Replicates are averaged; those with no signal do not enter the mean. "no signal" means that the variant was in the library but no mating with the target was seen in any replicate; the authors take this as a sign of poor binding, and no number exists. The authors' rule: three or more of the six replicates give a measured affinity, fewer mean a poor binder. Values of this round are not directly comparable with the first-round values of the same sequences. As a blank, each scFv also met three strains without target: over all light chain designs, 4% of these pairings were detected, typically at 2.64 and seldom below 1.59. The control count says in how many pairings with the empty strains this scFv gave a signal.

CDR-L1	CDR-L2	CDR-L3	log10 Kd (nM), mean	detected	control signals
KLSQVTGHLSVEKNNVA	EMETREP	QQYDRLPLS	1.00	6 of 6	0 of 18
KVYASTMLESHDKNSIA	DLSTRGN	QQYHRLPLS	0.04	6 of 6	1 of 18
RLTNEFEKVSHHKNSIA	HTDQRCM	QQYFTLPLS	0.55	6 of 6	1 of 18
KSSYSELYESVNKNSVA	HASTRES	QQYHRLPLS	-0.08	6 of 6	3 of 18
HISMMVGTKGYLKNSVA	NAETRED	QQYHRLPLS	0.85	6 of 6	0 of 18
KLTNVTGTEKVLGNNVA	EMETRER	QQYNRLPLA	2.02	4 of 6	0 of 18
MSSQSVTYESRNKNSVA	WASTRES	QQYHRLPLS	no signal	0 of 6	1 of 18
KSSQSVLYESRYKNSVA	GASLRES	QQYHRLPLS	0.55	6 of 6	2 of 18
NVGQHMLGESRNKNSVA	HQSTRED	QHYHRLPLS	2.83	1 of 6	0 of 18
SLTAHHQEAKSAENSVA	EAVMLES	QQYHQLPLM	2.10	5 of 6	1 of 18
QSSQSVLLESHNKNSVA	EASTRES	QQYAQLPLS	0.90	6 of 6	1 of 18
KLYDEATSRVGTAENIA	EKTISLQ	QQYHRLPLS	1.73	3 of 6	1 of 18
VLPDHELMLESQQHSIA	NEDKRME	QQYSRLPLM	0.21	6 of 6	0 of 18
KLSLFYRVETLQKNSVA	DNSTRES	QDYDRLPLS	3.42	3 of 6	0 of 18
SLQTKYSTAQDRWSNIA	HADQVEA	QQYFRLPIV	1.36	6 of 6	0 of 18
KVSPSWWYESRNKNNVA	HASTRES	QQYHRLPLH	0.43	6 of 6	1 of 18
KSSQSVLNNSDNKNSVA	WASTRES	QQYHRLPLS	2.16	3 of 6	0 of 18
DSSQSCLYESRNKNSVA	WASTRES	QQYHRLPIS	no signal	0 of 6	0 of 18
KFSQSVLYESRNKNSVA	DASTRES	QQYVVLPLS	-0.06	6 of 6	1 of 18
HVNHEYLDYKNYENNIA	HGSQRLY	QQYSHLPLS	0.29	6 of 6	1 of 18
KVSPSWLYEDRNCNAVA	QASQRES	QQYHRLPLS	0.42	6 of 6	0 of 18
QLGAVMDMTSKNKNSVA	EQSTREN	QQYHRLPLS	0.61	6 of 6	0 of 18
KSSQSVLYESREKNSVA	QGSTRES	QQYHRLPLS	0.71	6 of 6	1 of 18
KSSISDLYESRNKNSVA	EASTREE	QQYHRLPLS	0.16	6 of 6	1 of 18
KISGMYQKESKNKNSIA	EMVNRES	QQYDRLPLS	0.50	6 of 6	2 of 18
MISQLMNMGQFAINSVA	QASIRNS	QQYDRLPLM	1.61	6 of 6	1 of 18
KLSQSMLYESRNKNNVA	AASDRES	QQYHRLPLS	-0.40	6 of 6	1 of 18
KVSQSCLMESRNKNSVA	EASTRES	QQYHRLPLS	0.39	5 of 6	0 of 18
KLGMWMYEPTEAKYAVA	QDEMRVH	QQYDRLPLI	2.00	2 of 6	0 of 18
KLDQSTLYESRNKNSVA	LASTRES	QQYHRLPLS	0.61	6 of 6	0 of 18
KSDQGALYESRNKNSVA	GASTRES	QQYHRLPLS	0.07	6 of 6	1 of 18
KLSSGVPYESRNKNSVA	QASTRES	QQYHRLPLS	-0.08	6 of 6	0 of 18
KSEKSKLYESRNKNSVA	QASTRES	QQYHRLPLS	0.31	6 of 6	0 of 18
MVTQVAMQGMTNKRSIA	NAETRET	QQYHRLPLI	-0.03	6 of 6	0 of 18
KFSQSVLYESRNKNSVA	EASTRED	QQYHRLPLS	-0.04	6 of 6	0 of 18
HISMMVGTKGYAKNSVA	NEETREK	QQYHRLPLS	0.88	6 of 6	0 of 18
KLSQSVLYESRNKNSVA	NASTREQ	QQYHRLPLM	-0.15	6 of 6	0 of 18
KLQQSVDYESRNKNSVA	NASTRMS	QQYHRLPLS	-0.12	6 of 6	1 of 18
KSSQNVLYESRNKNSVA	SASTRES	QQYHRLPLS	0.65	6 of 6	1 of 18
TISQLYNMGQFAINSVA	QASIRNS	QQYDRLPLI	3.07	3 of 6	0 of 18
KSSQHVLYESRNKNSVA	KASTRES	QQYHRLPLS	1.14	6 of 6	1 of 18
MSSQSVLYESRNKNSVA	WASTRER	QQYHRLPLH	2.06	2 of 6	1 of 18
MISQLYNMGQFAINSVA	QAELRNE	QQYDRLPLA	1.38	3 of 6	0 of 18
KLDQSVLYESRNKNSVA	GASQRES	QQYHRLPLS	-0.24	6 of 6	0 of 18
KISQSVLYQARNQNSVA	SASTRMH	QQYHRLPLS	0.75	6 of 6	3 of 18
KISQHVLYESPNKNSVA	DASTRES	QQYHRLPLS	0.14	6 of 6	3 of 18
KSSQSVLYESRNCNSVA	WASTRES	QQYHRLPLS	2.45	1 of 6	1 of 18
NLMSHQSEYDVWKYSIA	EASIRLS	QQYFRLPLA	1.59	3 of 6	0 of 18
SMQLDQIEGNQQQNSIA	GESEADM	QHYARLPLT	no signal	0 of 6	0 of 18
KDMQSWLYWSRNQNSVA	NASQREH	QQYHRLPLS	0.25	6 of 6	5 of 18
MISQISNMGQFAINSVA	QASIRNS	QQYDRLPLM	0.67	6 of 6	0 of 18

The opening 9 entries, copied out:

CDR-L1,CDR-L2,CDR-L3,"log10 Kd (nM), mean",detected,control signals
KLSQVTGHLSVEKNNVA,EMETREP,QQYDRLPLS,1.00,6 of 6,0 of 18
KVYASTMLESHDKNSIA,DLSTRGN,QQYHRLPLS,0.04,6 of 6,1 of 18
RLTNEFEKVSHHKNSIA,HTDQRCM,QQYFTLPLS,0.55,6 of 6,1 of 18
KSSYSELYESVNKNSVA,HASTRES,QQYHRLPLS,-0.08,6 of 6,3 of 18
HISMMVGTKGYLKNSVA,NAETRED,QQYHRLPLS,0.85,6 of 6,0 of 18
KLTNVTGTEKVLGNNVA,EMETRER,QQYNRLPLA,2.02,4 of 6,0 of 18
MSSQSVTYESRNKNSVA,WASTRES,QQYHRLPLS,no signal,0 of 6,1 of 18
KSSQSVLYESRYKNSVA,GASLRES,QQYHRLPLS,0.55,6 of 6,2 of 18
NVGQHMLGESRNKNSVA,HQSTRED,QHYHRLPLS,2.83,1 of 6,0 of 18